Laboratory results: patent publication US5514653A, “Method of blocking the SEC receptor” (Washington University, priority 1994, dated 1996)

Test system: PC12 cells
Experiment: MTT assay of neurotoxicity in PC12 cells
Assay type: cell-based
Conditions: FIG. 1 and 2
From the text: The MTT assay (19) was used to monitor the neurotoxicity of amyloid-β peptide. […] Inhibition of MTT reduction is a specific, early indicator of amyloid-β-mediated cytotoxicity. The PC12 cell line was used because it is the most well characterized cell line of neuronal origin and because previous studies have shown there is abundant expression of SEC receptor in this cell line. Using ^125 I peptide 105Y there is specific, saturable binding.
First, the effect of amyloid-β 25-35 on MTT reduction in PC12 cells was examined (FIG. 1). PC12 cells were incubated for six (6) hours at 37° C. with amyloid-β 25-35 in several different concentrations as shown on the horizontal axis. MTT was added and the cells incubated at 37° C. for another two (2) hours. Cell extraction buffer was added and the incubation continued at 37° C. overnight. […] Results were reported as percent control response as determined by the difference between control cells and cells lysed prior to incubation with MTT. […]
In the MTT assay used herein, inhibition of cellular redox activity is measured by 3- 4,5-dimethylthiazol-2-yl!-2,5-diphenyltetrazolium bromide (MTT) by conventional procedures as described by Hansen et al. (19).

## amyloid-β 1-16: region of the amyloid-β protein (DAEFRHDSGYEVHHQK)
  effect on MTT reduction: no effect
